Test results taken from article PMC10709440, “High-throughput ligand profile characterization in novel cell lines expressing seven heterologous insect olfactory receptors for the detection of volatile plant biomarkers” (Scientific Reports, 2023).

Molecular target: T1, Drosophila OR47a (Drosophila melanogaster, UniProt P81921)
T1 construct: expressed in transfected cells
T1 sequence (P81921 1-385): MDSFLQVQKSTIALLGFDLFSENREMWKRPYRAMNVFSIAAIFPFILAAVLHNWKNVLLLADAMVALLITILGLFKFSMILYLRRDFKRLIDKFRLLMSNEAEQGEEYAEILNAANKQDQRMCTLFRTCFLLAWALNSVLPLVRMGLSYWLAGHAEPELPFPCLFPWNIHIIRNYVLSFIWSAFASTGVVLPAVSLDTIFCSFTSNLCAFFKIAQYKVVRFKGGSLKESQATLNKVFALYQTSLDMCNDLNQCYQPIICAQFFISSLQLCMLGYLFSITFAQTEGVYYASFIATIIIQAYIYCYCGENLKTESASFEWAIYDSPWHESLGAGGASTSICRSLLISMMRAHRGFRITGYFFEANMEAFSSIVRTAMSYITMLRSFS
T1 sequence (Q9VNB5 1-486 partner): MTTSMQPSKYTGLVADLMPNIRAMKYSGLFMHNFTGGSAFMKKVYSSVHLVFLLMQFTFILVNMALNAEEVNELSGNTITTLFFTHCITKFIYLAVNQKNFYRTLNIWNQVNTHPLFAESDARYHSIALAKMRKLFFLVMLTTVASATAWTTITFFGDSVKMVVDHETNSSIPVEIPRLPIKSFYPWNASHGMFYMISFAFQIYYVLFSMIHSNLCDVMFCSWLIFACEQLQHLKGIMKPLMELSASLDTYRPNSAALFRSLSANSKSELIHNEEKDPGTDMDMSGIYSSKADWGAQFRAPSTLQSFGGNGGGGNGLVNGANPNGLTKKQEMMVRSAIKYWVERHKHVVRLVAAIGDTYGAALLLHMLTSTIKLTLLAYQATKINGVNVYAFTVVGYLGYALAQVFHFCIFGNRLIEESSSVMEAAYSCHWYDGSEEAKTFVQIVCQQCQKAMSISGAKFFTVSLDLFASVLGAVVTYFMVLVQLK
Assay: Calcium ion fluorescence (GCaMP6) assay, OR47a stable HEK293 cell line
Assay type: cell-based
Conditions: for Average response: OR47a cell line, mean of biological replicates; for DF norm AVERAGE OR47a: normalized fluorescence change, values below 0.05 threshold given as 0
Procedure: These VUAA1 normalized ∆F values were used to compare the different receptors and ligands.
The concentration-dependent effect of the reference ligands on their cognate cell lines was examined in more detail. Twelve different ligand concentrations were measured on each cell line in an overall 0.01 μM to 100 μM concentration range with 5 repetitions with three technical replicates each time.
Twelve thousand to 18,000 cells were plated into each well of a black wall, transparent bottom 384-well microplate (Greiner) 48 h or 72 h before the measurements and were simultaneously treated with 1 μg/mL doxycycline. […] The plate has 24 columns, thus we could record responses in up to eight different cell lines in each plate. On the day of the experiment, the growth medium was replaced with 20 µL assay buffer/well (140 mM NaCl, 5 mM KCl, 2 mM CaCl2, 1 mM MgCl2, 5 mM HEPES-Na, 20 mM glucose, pH 7.3, 340 mOsm). […] Baseline fluorescence (F0) was recorded for 5 s, after which 7 µL VOC buffer (140 mM NaCl, 5 mM KCl, 2 mM CaCl2, 1 mM MgCl2, 5 mM HEPES-Na, 31 mM glucose, 0.1% DMSO, pH 7.3, 340 mOsm) was injected into each well in one row and the fluorescence response was recorded for an additional 30 s, at a rate of one read/sec. VOC solutions (VOC buffer with 4× concentration of the final measured VOC concentration, 9 µL/well was injected) were measured on the same wells in a second round with the same protocol. Each individual concentration of a specific VOC sample was recorded in three wells for the same cell line on the same microplate. The raw data were exported in xls file format, F0 and FMAX values, and the fluorescence intensity changes (∆F) were calculated in Excel (Microsoft) (Supplementary file Data summary.xlsx) using the following equation: ΔF=FMAX-F0/F0 (see also Fig. 1C). On each plate, we recorded the response of each cell line to 50 µM VUAA1. The average of these ∆F values of each cell line were used to calculate the VUAA1-normalized values for the rest of the plate, by dividing VOC response ∆F values by the average VUAA1 response ∆F value of the corresponding OR cell line. Each VOC-OR combination was measured three times as technical replicates. […] The average of these replicates were used as one ∆F and VUAA1-normalized ∆F in the following analysis.
In the next rows we tested the reference VOCs (or other VOCs known to activate the corresponding cell lines), in order to test if all cell lines are responsive. The remaining rows were used to test VOCs with unknown effect.
The recorded FMAX, F0, ∆F, VUAA1-normalized ∆F values, as well as the OR name, the name of the tested sample, and the final concentration for each well were copied into supplementary file Data summary.xlsx, that was used to summarize all the plates recorded. Here, the averages of the measurements were calculated for each receptor-VOC-concentration combination.

[1] = HEK293, read-out: OR47a response (VUAA1-normalized response)

SMILES: CC(=O)CCC=C(C)C [6-methyl-5-hepten-2-one]
- activation at 1 µM [1]: 0%
- activation at 10 µM [1]: 0%
- activation at 100 µM [1]: 6%
- Average response (odorant cc. 1 µM): 0.00
- Average response (odorant cc. 10 µM): 0.00
- Average response (odorant cc. 100 µM): 0.06
- DF norm AVERAGE OR47a (concentration 1): 0
- DF norm AVERAGE OR47a (concentration 10): 0
- DF norm AVERAGE OR47a (concentration 100): 0.06288
